In PubChem BioAssay AID463190 (Sanford-Burnham Center for Chemical Genomics, 2010):
This is a selection; strong and weak results do not stand in their true shares. Calls of active or inactive are those of the source.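 How the source made its calls: active means inhibition of at least 40%; inactive means the rest.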

Assay: growth inhibitors of tim10-1 mutant yeast, primary screen, luminescence, uHTS (AID 463190);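 further: mutant grown at 25 °C; 0% = DMSO wells with yeast and 100% = wells holding no yeast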
Conditions: S. cerevisiae tim10-1 ts strain growth, BacTiter-Glo, 24 h; at 20 µM; active compounds read high

Structure (SMILES)	inhibition
C[C@H]1OP(=O)(Oc2ccccc2)C[C@@H]2O[C@@H]21 (stereo partly drawn)	inactive: -3.52%
C[C@@H]1C=CCP(=O)(Oc2ccccc2)O1 (stereo partly drawn)	inactive: -11.5%
Cc1ccccc1CN(C)C(=O)COC(=O)C(O)(c1ccccc1)c1ccccc1	inactive: 13.1%
CC(C)(C)C(=O)NC(Sc1ccccc1)C(Cl)(Cl)Cl (stereo not drawn)	inactive: 8.49%
CCOc1ccc(C2=NCC(CBr)S2)cc1 (stereo not drawn)	inactive: 9.36%
O=P1(Nc2nc3ccc(Cl)cc3s2)COc2ccccc2O1 (stereo not drawn)	inactive: 12.1%
Nc1cc(N)c2nonc2c1[N+](=O)[O-]	inactive: -4.71%
CC(C)CC(=O)NC(Sc1ccc(Cl)cc1)C(Cl)(Cl)Cl (stereo not drawn)	inactive: 13%
O=C(NC(Sc1ccncn1)C(Cl)(Cl)Cl)c1ccccc1 (stereo not drawn)	inactive: 12.2%
Cc1c2non([O-])c-2c(C)[n+](=O)[n+]1[O-]	active: 45.7%
Oc1ccccc1CNc1ccccn1	inactive: -13.3%
Cc1ccc(OP(=O)(Nc2nccs2)Oc2ccc(C)cc2)cc1	inactive: 11.2%
COc1ccccc1OP(=O)(Nc1ccc(C)cn1)Oc1ccccc1OC	inactive: 13.7%
CN1CCCC(OC(=O)C(c2ccccc2)c2ccccc2)C1 (stereo not drawn)	inactive: 10.7%
Clc1ccc(Cl)c(NC2=NCC(CBr)S2)c1 (stereo not drawn)	inactive: 17.9%
NC(=O)c1cc([N+](=O)[O-])cc([N+](=O)[O-])c1N	inactive: 17.8%
Cc1ccc(N/C(=N/P(=O)(N2CCOCC2)N2CCOCC2)N2CCOCC2)cc1	inactive: 10.4%
CN(C(=O)Cc1ccc(Cl)c(Cl)c1)[C@H]1CCCC[C@H]1N1CCCC1	inactive: -3.16%
CCN(N=Nc1nonc1N)c1nonc1N	inactive: -2%
O=[N+]([O-])c1cc([N+](=O)[O-])c(CCN2CCOCC2)c([N+](=O)[O-])c1	inactive: 31.2%
Cc1ccc(NP(=O)(Oc2ccccc2F)Oc2ccccc2F)nc1	inactive: 12%
CN(C(=O)Cc1ccc(Cl)c(Cl)c1)[C@H]1CCCC[C@@H]1N1CCCC1	inactive: 16.9%
Cc1cc(SC(NC(=O)c2ccc(F)cc2)C(Cl)(Cl)Cl)ncn1 (stereo not drawn)	inactive: 13.5%
CCOP(=O)(Nc1ccccc1)OCC	inactive: 14.5%

Structure (SMILES)	inhibition
CC(=O)Nc1ccc([As](=O)(O)O)cc1	inactive: 2.94%
O=C(O)c1ccccc1[As](=O)(O)O	inactive: 21.4%
O=P(Nc1nc2ccc(Cl)cc2s1)(c1ccccc1)c1ccccc1	inactive: 17.3%
O=[N+]([O-])c1cccc(NC2=NCC(CBr)S2)c1 (stereo not drawn)	inactive: 11.6%
CC(C)(C)C(=O)NC(Sc1ccncn1)C(Cl)(Cl)Cl (stereo not drawn)	inactive: 3.21%
O=[N+]([O-])c1ncn(CCn2ncnc2[N+](=O)[O-])n1	inactive: -1.99%
O=C(Nc1cc([As](=O)(O)O)ccc1O)c1ccccc1	inactive: 22.7%
CN(C)C(=O)OCCc1n(C)cc[n+]1C	inactive: 20.8%
CC(C)=N/N=C(\N)N[N+](=O)[O-]	inactive: 16.3%
CC1CCN(C(=O)Oc2c(Cl)cc(Cl)c3cccnc23)CC1	inactive: 9.3%
C[N+]1=C2C=CC=CC=C2SC12C([N+](=O)[O-])=CC([N+](=O)[O-])=C[C-]2[N+](=O)[O-] (stereo not drawn)	inactive: 37.7%
Nc1ccc([As](=O)(O)c2ccc(N)cc2)cc1	inactive: -10.8%
CCN(/C(=N/P(=O)(N1CCOCC1)N1CCOCC1)N1CCOCC1)c1ccc(OC)cc1	inactive: 11.9%
O=[N+]([O-])c1cccc2n[nH]nc12	inactive: 1.35%
CC(=O)N1C2C3N(C(C)=O)C1C1N(C(C)=O)C(C(N1C(C)=O)N3C(C)=O)N2C(C)=O	inactive: 2.87%
CCc1nc2c(n1)c1c(non1O)c1c2no[n+]1[O-]	inactive: 14.6%
O=[N+]([O-])c1cc([N+](=O)[O-])c(CCNc2ccccc2)c([N+](=O)[O-])c1	active: 45.7%
Cc1ccc(NP(=O)(Oc2ccccc2)Oc2ccccc2)nc1	inactive: 8.25%
COc1ccc(C2=NCC(CBr)S2)cc1 (stereo not drawn)	inactive: 9.89%
CCC(C)N(CC(C)C)C(=S)SC(NC(C)=O)C(Cl)(Cl)Cl (stereo not drawn)	inactive: 25.2%
CCOC(=O)c1ccc(NC(=O)C(C)(CCl)SC)cc1 (stereo not drawn)	inactive: 23.7%
O=C(OC1CN2CCC1CC2)c1cccc([N+](=O)[O-])c1 (stereo not drawn)	inactive: -139%
O=C(Nc1ccncc1[N+](=O)[O-])c1ccc([N+](=O)[O-])cc1[N+](=O)[O-]	inactive: 33.7%
O=C(COc1ccccc1)OC1CN2CCC1CC2 (stereo not drawn)	inactive: -13.6%

Structure (SMILES)	inhibition
COP1(=S)c2c(C)nn(CCC#N)c2N=C(c2ccc(F)cc2)N1C (stereo not drawn)	inactive: 12.4%
O=P(Nc1ccccn1)(c1cccc2ccccc12)c1cccc2ccccc12	inactive: 28.5%
Cc1cc(SC(NC=O)C(Cl)(Cl)Cl)ncn1 (stereo not drawn)	inactive: 10.6%
CCOC(=O)Nc1cccc([As](=O)(O)O)c1	inactive: 5.99%
Cc1cc(SC(NC(=O)c2ccccc2)C(Cl)(Cl)Cl)nc(C(C)C)n1 (stereo not drawn)	inactive: 31.4%
CCCCOc1ccc(C(=O)NCC2(N3CCCCC3)CCCCC2)cc1OC	inactive: 8.46%
CCOC(=O)Nc1ccc([As](=O)(O)O)c(O)c1	inactive: 0.357%
O=[N+]([O-])c1cc([N+](=O)[O-])c(-c2ccn[nH]2)s1	active: 87.8%
CC(C)NC(=O)NP(=O)(Oc1ccccc1)Oc1ccccc1	inactive: 7.14%
O=C(OC1CN2CCC1CC2)c1cccc2[nH]cnc12 (stereo not drawn)	inactive: -7.23%
CCN(CC)C(=S)SC(NC=O)C(Cl)(Cl)Cl (stereo not drawn)	inactive: 15%
CC(C)c1ccc(OP(=O)(Nc2ccccn2)Oc2ccccc2F)cc1 (stereo not drawn)	inactive: 21.7%
ClCCSc1nnc(-c2cccnc2)o1	inactive: 18.3%
Cc1ccc2nc3c(c(C)c2c1)CC(C(Cl)Cl)S3 (stereo not drawn)	active: 42.5%
Cc1ccc(OP(=O)(Nc2ccc([N+](=O)[O-])cn2)Oc2ccc(C)cc2)cc1	inactive: 18.9%
COc1cc(C(=O)NCC2(N3CCOCC3)CCCCC2)ccc1OCC(C)C	inactive: 31.6%
O=[As](O)(c1ccc(O)cc1)c1ccccc1O	inactive: -6.31%
C[As](=O)(O)c1cccc(C(=O)O)c1	inactive: 7.91%
COc1ccc(N/C(=N/P(=O)(N2CCOCC2)N2CCOCC2)N2CCOCC2)cc1	inactive: 3.58%
COc1cc(I)ccc1[As](=O)(O)O	inactive: -16.6%
COc1ccc2nc(NP(=O)(c3ccccc3)c3ccccc3)sc2c1	inactive: 23.3%
Cc1cc(=O)[nH]c(N[N+](=O)[O-])n1	inactive: 7.53%
O=C(OC1CN2CCC1CC2)C12CC3CC(CC(C3)C1)C2 (stereo not drawn)	inactive: 10.5%
Cc1c2c(nc3ccccc13)SC(C(Cl)Cl)C2 (stereo not drawn)	inactive: 19.5%

Structure (SMILES)	inhibition
CCOP(=O)(Nc1cccc2ccccc12)OCC	inactive: 11.2%
COc1cc(C2NCCC3(OCCO3)C2(C)C)cc(OC)c1OC (stereo not drawn)	inactive: 21.8%
CCCOP(=S)(Nc1nc(N)cc(=O)[nH]1)OCCC	inactive: 16%
Cc1ccc(NCCc2c([N+](=O)[O-])cc([N+](=O)[O-])cc2[N+](=O)[O-])cc1	active: 63.5%
Cc1cccc(OCC(=O)OC2CN3CCC2CC3)c1 (stereo not drawn)	inactive: -8.33%
O=[As](O)(c1cccc(O)c1)c1cccc(O)c1	inactive: -1.32%
CS(=O)(=O)c1ccc(Cl)c(NC(=O)COC(=O)C(O)(c2ccccc2)c2ccccc2)c1	inactive: 18.3%
O=[As](O)(O)c1cccnc1	inactive: -12.8%
COc1cc(C(=O)NCC2(N3CCOCC3)CCCCC2)cc(Cl)c1OC(C)C	inactive: 23.8%
O=C(OC1CN2CCC1CC2)c1ccc(Cl)cc1 (stereo not drawn)	inactive: -26.7%
CN(C(=O)Cc1ccc(Cl)c(Cl)c1)[C@H]1CC[C@@]2(CCCO2)C[C@@H]1N1CCCC1	inactive: 14.1%
O=[N+]([O-])c1ccc2c(c1)nnn2O	inactive: 2.24%
CN(C)C(=O)c1cc([N+](=O)[O-])cc2c1-c1c(cc([N+](=O)[O-])cc1[N+](=O)[O-])C2=O	active: 81%
CCOP1(=S)c2c(C)nn(CCC#N)c2N=C(c2ccc(F)cc2)N1C (stereo not drawn)	inactive: 8.51%
CN(C(=O)Cc1ccccc1)[C@@H]1CC[C@]2(CCCO2)C[C@H]1N1CCCC1	inactive: 7.47%
N#CCCN(C(=O)COC(=O)C(O)(c1ccccc1)c1ccccc1)c1ccc(F)cc1	inactive: 6.99%
NC(=O)Nc1ccc([As](=O)(O)O)cc1	inactive: -4.42%
Nc1ccccc1[As](=O)(O)c1ccccc1	inactive: -11%
O=C(O)COc1ccc([As](=O)(O)O)cc1[N+](=O)[O-]	inactive: 17.3%
CS(=O)(=O)c1cc([N+](=O)[O-])c2no[n+]([O-])c2c1	inactive: 1.67%
O=P(Nc1nccs1)(Oc1ccccc1)Oc1ccccc1	inactive: 16.8%
O=P(Nc1nccs1)(c1ccccc1)c1nc2ccccc2s1 (stereo not drawn)	inactive: -3.34%
CCOP1(=S)c2c(C)nn(CCC#N)c2N=C(c2ccccc2F)N1C (stereo not drawn)	inactive: 26.6%
O=[As](O)(c1cccs1)c1cccs1	inactive: 30.4%

Structure (SMILES)	inhibition
Cc1ccc(OCC(=O)OC2CN3CCC2CC3)cc1 (stereo not drawn)	inactive: 5.39%
O=P1(Nc2ccc(Br)cn2)COc2ccccc2OC1	inactive: 3.67%
NS(=O)(=O)c1cccc(NC(=O)COC(=O)C(O)(c2ccccc2)c2ccccc2)c1	inactive: -4.76%
Nc1cccc([As](=O)(O)c2ccccc2)c1	inactive: -12.6%
O=P1(Nc2ncccn2)COc2ccccc2OC1	inactive: 13%
O=C(/C=C/c1ccccc1)OC1CN2CCC1CC2 (stereo not drawn)	inactive: 5.07%
CN(C)C1(CNC(=O)c2ccc(S(C)(=O)=O)cc2)CCCCC1	inactive: 9.93%
CC1CCC(C(C)C)C(OP(=O)(Nc2ccccn2)c2ccccc2)C1 (stereo not drawn)	inactive: 24.7%
Cc1ccc(C(=O)OC2CN3CCC2CC3)cc1 (stereo not drawn)	inactive: -3.98%
Cc1nn(-c2ccccc2)c2c1P(=O)(N1CCOCC1)N(C)C(c1ccccc1)=N2 (stereo not drawn)	inactive: -0.436%
CC1(CBr)Cn2c(nc3ccccc3c2=O)S1 (stereo not drawn)	inactive: -0.379%
O=[As](O)(c1ccccc1Br)c1ccccc1Br	inactive: 6.24%
CC(C)/C=N\N=C(\N)N[N+](=O)[O-]	inactive: -2.59%
CN(C(=O)Cc1ccc(Cl)c(Cl)c1)[C@@H]1CCCC[C@H]1N1CCCC1	inactive: -6.44%
COc1ccccc1CNC(=O)COC(=O)C(O)(c1ccccc1)c1ccccc1	inactive: 11.3%
CC(C)(C)C(=O)NC(Sc1ncccn1)C(Cl)(Cl)Cl (stereo not drawn)	inactive: 18.3%
Clc1n[nH]nc1-c1nn[nH][15n]1	inactive: 12.4%
CCOP(=O)(Nc1ccc(C)cn1)OCC	inactive: 1.38%
CN(CCCl)Cc1cc(Cl)c(NC2=NCCN2)c(Cl)c1	inactive: -3.2%
CCOP(=O)(NC(=NC(C)c1ccccc1)NC(C)c1ccccc1)OCC (stereo not drawn)	inactive: 10.7%
O=P1(Nc2ccccn2)COc2ccccc2OC1	inactive: -2.97%
CCC1=CC2Cc3nc4ccc(Cl)cc4c(N)c3C(C1)C2 (stereo not drawn)	inactive: -24.6%
